The values that follow come from patent US9670210B2, “Cyclopropylamines as LSD1 inhibitors” (Incyte Corporation, priority 2014, dated 2017).

The test has as its target LSD-1 enzyme (Homo sapiens (Human), UniProt O60341).

The IC50 is the point on the concentration scale where inhibition reaches its midpoint. `COCC1(CN[C@@H]2C[C@H]2c2ccccc2)CCN(CC2(C(=O)O)CCC2)CC1` [Example 36, 1-{[4-(methoxymethyl)-4-({[(1R,2S)-2-phenylcyclopropyl]amino}methyl)piperidin-1-yl]methyl}cyclobutanecarboxylic acid] returned an IC50 of under 100 nM.
